# Yeast mating assay 2: variants of the scFv Ab-95

From the AlphaSeq antibody data of Engelhart et al. 2022 (doi:10.1038/s41597-022-01779-4), copy in the FLAb collection.

All variants were tested on one target, the spike HR2 peptide PDVDLGDISGINAS (SARS-CoV-2).

Parent scFv Ab-95: VH joined to VL by three GGGGS repeats. Changes lie in the light chain CDRs alone.
VH: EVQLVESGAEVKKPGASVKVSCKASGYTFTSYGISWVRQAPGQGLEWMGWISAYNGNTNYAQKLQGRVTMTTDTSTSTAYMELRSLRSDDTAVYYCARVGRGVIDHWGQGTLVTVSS
VL: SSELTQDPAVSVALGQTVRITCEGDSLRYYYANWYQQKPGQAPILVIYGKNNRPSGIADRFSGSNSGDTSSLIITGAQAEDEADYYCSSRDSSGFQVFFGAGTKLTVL

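The parent was found by panning a naive human phage display library on the peptide. In library AAYL52, one, two or three CDR residues were substituted; doubles and triples were drawn at random. The scFvs were displayed on barcoded MATa yeast, the peptide on MATalpha yeast. Mating (16 h, 30 °C) was followed by selection of diploids and sequencing of their barcodes. Scores were corrected for input abundance and mapped to Kd with protein pairs of known affinity run in the same pool. Each pool was mated in three replicate cultures.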

Positions count from residue 1 of the parent VL; R53L puts L in place of R.
All variants listed here change G94 of the VL, counted from its first residue.
Numbers give log10(Kd / nM), so 0 is 1 nM and 3 is 1 µM. Smaller is tighter.
"nd" means that the variant was in the library but no mating with the target was seen in that replicate; the authors take this as a sign of poor binding, and no number exists.
For reference, the parent read 2.31 as the reference entry and 2.25 as a member of this library.

With R53L G94C the result was 3.06, nd, nd. For S88F S92D G94I, the assay gave 5.50, nd, nd. With N52K S92V G94F the result was 2.84, 4.08, 4.48. Variant S93D G94W Q96C showed 3.25, 3.04, 4.01. For Y30H G94E Q96E, the assay gave 2.09, 1.91, 1.89. With R53A S92H G94I the result was 3.14, 4.43, nd. Variant E23C R90E G94F gave nd, 3.78, nd. With G24P Y30C G94K the result was nd, nd, nd. Variant K50I S93F G94E gave 4.51, nd, nd.

With P54Q S88C G94W the result was 3.18, 2.94, 4.73. With K50R S92K G94Q the result was 2.50, 2.57, 2.15. Variant N51T G94M showed nd, 4.34, 4.22. Variant Y31N N52G G94E showed nd, 4.00, nd. Variant R28V G94T Q96K gave 4.01, nd, 3.65. With G94Q F98P the result was nd, nd, nd. For E23F N52M G94S, the assay gave 4.22, nd, nd. Variant S26Y G94T Q96P showed 3.87, 5.97, 3.83. Variant Y31K G49R G94E showed nd, nd, nd.

Variant G49E S89F G94P gave 3.94, nd, 4.19. Variant G94K gave 2.38, 2.58, 3.79. Variant D25A N52D G94T showed 2.07, 4.55, 3.00. Variant A32N G94S F95G showed 3.69, 3.20, nd. Variant S88R G94F V97Q showed 4.00, nd, 3.86. Variant E23W D25G G94Q gave 3.77, 3.85, 2.96. With Y29I Y31A G94K the result was 2.58, nd, nd. Variant N51Q G94Y F95I showed 3.03, 2.63, 3.54. Variant Y30D G49S G94V showed 2.65, 2.94, 1.38.

With R53V G94F F95Q the result was 3.37, 5.63, nd. With N33L S93C G94S the result was 3.99, nd, nd. With D25R S88L G94C the result was 2.94, 3.96, 3.91. Variant N51L G94H F95I gave 4.91, nd, nd. Variant S26N N51V G94E gave 4.07, 5.58, nd. Variant L27G S92L G94K showed nd, 4.53, nd. For L27M R90P G94A, the assay gave 2.88, nd, 2.37. Variant Y29I G49R G94W gave 4.36, 4.29, 4.37. For R90G G94N, the assay gave 3.51, 5.47, nd.

Variant S55R G94W gave 3.50, nd, 2.97. With P54A S93P G94V the result was 3.78, nd, 3.49. With A32Y N52S G94T the result was 4.09, nd, nd. With A32V G94T the result was 2.86, 3.22, 1.84. Variant D25C S55M G94V gave 3.41, 3.13, 2.36. With E23W S89E G94Y the result was 2.73, 3.71, nd. With S26C P54R G94S the result was nd, nd, nd. Variant N33D S89L G94Q gave 3.81, 3.57, nd. Variant N51L R90C G94P gave 3.00, nd, 4.40.

Variant G94S Q96M showed 2.28, 2.20, 2.78. With G49Q G94D Q96I the result was nd, nd, nd. With N52V G94A Q96Y the result was 2.68, 3.30, 2.83. Variant Y29K G94M V97R gave nd, nd, nd. Variant N33V G94H Q96L gave 2.29, 2.79, 1.69.

Top 3 of the variants detected in all replicates, tightest first:

changes	log10 Kd, replicates
Y30H G94E Q96E	2.09, 1.91, 1.89
N33V G94H Q96L	2.29, 2.79, 1.69
Y30D G49S G94V	2.65, 2.94, 1.38

As a blank, each scFv also met three strains without target: over library AAYL52, 28% of these pairings were detected, typically at 3.91 and seldom below 2.90.